# The list shows a part of the results, in another mix than the full data. Some results for these compounds are left out of this collection, so the calls shown say nothing about other tests. The source made the active and inactive calls. Cut-off read from the data, not from the text of the source: active = inhibition above about 36%; inactive = the rest.
# Sequences of proteins named here, by UniProt entry; tags and fusion partners are left off.
# UniProt P61081, whole entry, looked up: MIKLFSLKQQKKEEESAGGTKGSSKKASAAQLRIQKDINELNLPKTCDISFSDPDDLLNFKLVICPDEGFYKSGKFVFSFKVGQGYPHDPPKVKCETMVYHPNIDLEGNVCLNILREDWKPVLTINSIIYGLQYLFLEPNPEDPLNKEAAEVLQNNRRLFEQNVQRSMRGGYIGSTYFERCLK
# UniProt Q13564, whole entry, looked up: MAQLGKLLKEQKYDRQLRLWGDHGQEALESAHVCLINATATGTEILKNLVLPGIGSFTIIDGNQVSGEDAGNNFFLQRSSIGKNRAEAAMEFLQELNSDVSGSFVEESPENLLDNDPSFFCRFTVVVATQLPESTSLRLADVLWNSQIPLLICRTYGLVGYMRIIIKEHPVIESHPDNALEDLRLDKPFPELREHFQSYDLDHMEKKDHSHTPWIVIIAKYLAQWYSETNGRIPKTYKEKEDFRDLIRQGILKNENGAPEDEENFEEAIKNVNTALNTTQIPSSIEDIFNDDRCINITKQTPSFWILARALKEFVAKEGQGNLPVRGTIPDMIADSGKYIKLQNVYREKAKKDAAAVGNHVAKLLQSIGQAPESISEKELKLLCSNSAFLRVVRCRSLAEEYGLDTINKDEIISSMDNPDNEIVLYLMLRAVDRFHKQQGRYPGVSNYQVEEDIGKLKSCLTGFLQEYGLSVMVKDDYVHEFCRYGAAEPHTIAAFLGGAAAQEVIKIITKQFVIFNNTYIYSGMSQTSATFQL
# Molecular target: NEDD8-conjugating enzyme Ubc12 (Homo sapiens) + NEDD8-activating enzyme E1 regulatory subunit (Homo sapiens) (UniProt P61081+Q13564)
# Assay: inhibitors of cullin neddylation, primary screen, biochemical, TR-FRET, uHTS, NAE and Ubc12 (AID 651699)
# Conditions: at 25 µM, hits give high values
row,Compound,inhibition
1,O=C(OC1CN2CCC1CC2)C(CO)(c1ccccc1)c1ccccc1 (stereo unspecified),inactive: -5.03%
2,CN(C)c1cccc(C(=O)NCC2(N(C)C)CCCCC2)c1,inactive: 21.9%
3,O=C(OCCN1CCCC1)C(O)(c1ccccc1)c1ccccc1,inactive: -3.19%
4,CC(C)Oc1ccc(C(=O)NCC2(N(C)C)CCCCC2)cc1,inactive: -6.67%
5,COc1ccc(Br)c(C(=O)NCC2(N3CCCCC3)CCCCC2)c1,inactive: -4.42%
6,C=C(C)C#CC(O)(C(=O)OC1CCN(C)CC1)c1ccccc1 (stereo unspecified),inactive: 1.24%
7,COc1cc(C(=O)NCC2(N(C)C)CCCCC2)c([N+](=O)[O-])cc1OC,inactive: -5.65%
8,CN(C)C1(CNC(=O)c2ccc(Br)cc2)CCCCC1,inactive: 1.84%
9,O=C(NCC1(N2CCCCC2)CCCCC1)c1cccc(Cl)c1,inactive: -0.84%
10,COc1ccc(Cl)cc1C(=O)NCC1(N(C)C)CCCCC1,inactive: 3.28%
11,COc1cccc(C(=O)NCC2(N3CCCCC3)CCCCC2)c1,inactive: 0.67%
12,CN(C)c1ccc(C(=O)NCC2(N(C)C)CCCCC2)cc1,inactive: -9.2%
13,CN(C)C1CCCC1OC(=O)C(O)(c1ccccc1)c1ccccc1 (stereo unspecified),inactive: -8.64%
14,Cc1ccccc1C(=O)NCC1(N2CCCCC2)CCCCC1,inactive: -4.13%
15,O=C(NCC1(N2CCCCC2)CCCCC1)c1cccc(Br)c1,inactive: -2.55%
16,CCN1CCCC(OC(=O)C2(O)c3ccccc3C=Cc3ccccc32)C1 (stereo unspecified),inactive: 16.8%
17,Cc1cc(C(=O)NCC2(N3CCCCC3)CCCCC2)ccc1[N+](=O)[O-],inactive: -36.8%
18,COc1ccc(C(=O)NCC2(N(C)C)CCCCC2)cc1,inactive: -0.51%
19,O=C(NCC1(N2CCCCC2)CCCCC1)c1cc(F)c(F)cc1Cl,inactive: -5.9%
20,C=CCN1CCN(CCOC(=O)C(O)(c2ccccc2)c2ccccc2)CC1,inactive: -0.11%
21,CN1[C@@H]2CC[C@H]1CC(OC(=O)C(O)(c1ccccc1)c1ccccc1)C2 (stereo partly specified),inactive: -13.9%
22,O=C(NCC1(N2CCCCC2)CCCCC1)c1cc([N+](=O)[O-])ccc1Cl,inactive: -15.2%
23,Cc1ccc(C(=O)NCC2(N3CCCCC3)CCCCC2)cc1,inactive: 4.32%
24,CC(C)N1C(=O)CC2(CCN(CCOC(=O)C(O)(c3ccccc3)c3ccccc3)CC2)C1=O,inactive: 1.1%
25,COc1cc(SC)ccc1C(=O)NCC1(N(C)C)CCCCC1,inactive: -4.6%
26,CCN(CC)CC(C)C(C)OC(=O)C(O)(c1ccccc1)c1ccccc1 (stereo unspecified),inactive: 7.11%

# Source: PubChem BioAssay AID651699 (Sanford-Burnham Center for Chemical Genomics, 2012)
